Test results published in paper PMC4380445.

Biological target: mouse monoclonal antibody 4G8 (mouse)
Assay: SPR; On-Chip two-step: 60-fold dilution of 4G8 captured for 120 s on immobilised Abeta1-42 oligomers (CM5), then 1 uM SpA injected for 180 s; HBS-EP pH 7.4

Substance: Protein A from Staphylococcus aureus (from UniProt P38507 37-477) (natural protein)
- Step 2/Step 1 RU ratio: 0.178
- stoichiometry N: 0.636
